Measurements: patent EP0698613B1, “Endothelin-antagonizing peptide” (KYOWA HAKKO KOGYO CO., Ltd., priority 1994, dated 1996)

Amino acid sequences for entries named in this document (tags omitted). Residues count along the entry.
UniProt P21450, 21-427: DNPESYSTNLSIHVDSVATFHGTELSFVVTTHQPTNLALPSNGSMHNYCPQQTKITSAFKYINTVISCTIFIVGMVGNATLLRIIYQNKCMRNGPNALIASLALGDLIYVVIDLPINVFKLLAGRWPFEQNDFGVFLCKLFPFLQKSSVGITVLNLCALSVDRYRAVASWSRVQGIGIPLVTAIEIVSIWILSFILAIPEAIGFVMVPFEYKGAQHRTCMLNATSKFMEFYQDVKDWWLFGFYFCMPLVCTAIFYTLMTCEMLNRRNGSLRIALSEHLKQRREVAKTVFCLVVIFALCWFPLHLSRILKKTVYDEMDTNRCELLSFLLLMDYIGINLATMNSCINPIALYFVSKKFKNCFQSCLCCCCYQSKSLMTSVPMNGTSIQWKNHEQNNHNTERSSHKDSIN

Tests used:
endothelin receptor [1] = molecular target: T1, endothelin receptor (Bos taurus, UniProt P28088); test: biochemical; format: binding, Bovine
T1 construct: the suspension was used as a membrane fraction liquid; from tissue; host or cells: bovine cerebellum membrane fraction
T1 sequence (P28088 27-441): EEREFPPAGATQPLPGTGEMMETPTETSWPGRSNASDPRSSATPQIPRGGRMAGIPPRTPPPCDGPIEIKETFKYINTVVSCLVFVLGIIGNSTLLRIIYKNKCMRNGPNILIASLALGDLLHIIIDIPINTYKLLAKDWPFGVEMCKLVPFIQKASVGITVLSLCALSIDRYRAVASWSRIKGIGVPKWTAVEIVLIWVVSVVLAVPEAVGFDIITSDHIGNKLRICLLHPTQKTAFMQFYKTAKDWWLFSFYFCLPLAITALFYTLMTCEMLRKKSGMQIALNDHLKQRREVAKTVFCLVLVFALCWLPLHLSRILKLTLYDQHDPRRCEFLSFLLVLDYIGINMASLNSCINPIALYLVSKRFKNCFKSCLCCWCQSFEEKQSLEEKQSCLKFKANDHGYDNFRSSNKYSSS
Experimental: (§1) The resulting solid substance was prepared as a suspension containing 2 mg/ml of protein, and the suspension was used as a membrane fraction liquid.

endothelin receptor [2] = molecular target: endothelin receptor (Bos taurus, UniProt P21450); test: biochemical
Experimental: as §1

## C[C@@H]1NC(=O)[C@H]([C@@H](C)O)NC(=O)CNC(=O)[C@H](Cc2c[nH]cn2)NC(=O)[C@H](Cc2c[nH]c3ccccc23)NC(=O)[C@H](CC(N)=O)NC(=O)CNC(=O)C[C@@H](C(=O)N[C@@H](Cc2c[nH]c3ccccc23)C(=O)N[C@@H](Cc2ccccc2)C(=O)N[C@@H](Cc2ccccc2)C(=O)N[C@@H](CC(N)=O)C(=O)N[C@@H](Cc2ccc(O)cc2)C(=O)N[C@@H](Cc2ccc(O)cc2)C(=O)NCCc2c[nH]c3ccccc23)NC(=O)[C@@H]2CCCN2C1=O [(I-1)]
Endothelin receptor [1]
  IC50: 50 nM
Endothelin receptor [2]
  IC50: 300 nM
